# Key:
# Protein sequences, listed by entry. Tags and fused reporters are not part of them.
# UniProt P14842, whole entry: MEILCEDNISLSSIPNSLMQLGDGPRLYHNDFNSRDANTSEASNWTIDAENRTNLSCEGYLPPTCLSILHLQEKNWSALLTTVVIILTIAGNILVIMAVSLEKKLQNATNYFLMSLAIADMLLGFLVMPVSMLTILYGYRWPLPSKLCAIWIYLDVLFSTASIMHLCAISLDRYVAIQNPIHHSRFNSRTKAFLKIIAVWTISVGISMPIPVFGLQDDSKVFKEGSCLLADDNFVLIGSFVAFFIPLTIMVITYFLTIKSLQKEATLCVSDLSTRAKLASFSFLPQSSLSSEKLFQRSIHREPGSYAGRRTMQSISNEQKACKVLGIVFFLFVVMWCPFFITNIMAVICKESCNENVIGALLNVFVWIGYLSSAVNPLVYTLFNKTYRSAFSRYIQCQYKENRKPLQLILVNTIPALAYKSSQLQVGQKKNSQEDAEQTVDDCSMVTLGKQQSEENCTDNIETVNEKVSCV
# UniProt P31652, whole entry: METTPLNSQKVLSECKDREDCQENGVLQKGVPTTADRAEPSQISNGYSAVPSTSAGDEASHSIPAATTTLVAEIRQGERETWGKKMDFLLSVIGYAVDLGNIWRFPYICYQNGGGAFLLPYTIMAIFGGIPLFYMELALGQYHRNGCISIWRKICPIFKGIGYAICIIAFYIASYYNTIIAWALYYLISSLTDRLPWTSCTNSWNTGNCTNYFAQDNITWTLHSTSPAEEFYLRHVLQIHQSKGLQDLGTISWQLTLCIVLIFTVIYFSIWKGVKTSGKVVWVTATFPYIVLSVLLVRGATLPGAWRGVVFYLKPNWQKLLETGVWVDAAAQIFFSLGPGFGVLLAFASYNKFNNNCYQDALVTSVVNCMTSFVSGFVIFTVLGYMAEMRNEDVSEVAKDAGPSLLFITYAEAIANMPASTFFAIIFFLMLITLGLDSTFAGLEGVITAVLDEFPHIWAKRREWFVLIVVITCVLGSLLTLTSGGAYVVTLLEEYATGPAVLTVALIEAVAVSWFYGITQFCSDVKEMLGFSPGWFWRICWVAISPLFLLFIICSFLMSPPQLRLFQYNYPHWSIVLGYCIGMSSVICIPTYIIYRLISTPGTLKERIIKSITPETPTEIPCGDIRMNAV
# [1] = biological target: 5-hydroxytryptamine receptor 2A (Rattus norvegicus, UniProt P14842)
# [2] = biological target: Sodium-dependent serotonin transporter (Rattus norvegicus, UniProt P31652)
# [3] = biological target: T1, 5-hydroxytryptamine receptor 2C (Rattus norvegicus, UniProt P08909)
# T1 sequence (P08909 whole entry): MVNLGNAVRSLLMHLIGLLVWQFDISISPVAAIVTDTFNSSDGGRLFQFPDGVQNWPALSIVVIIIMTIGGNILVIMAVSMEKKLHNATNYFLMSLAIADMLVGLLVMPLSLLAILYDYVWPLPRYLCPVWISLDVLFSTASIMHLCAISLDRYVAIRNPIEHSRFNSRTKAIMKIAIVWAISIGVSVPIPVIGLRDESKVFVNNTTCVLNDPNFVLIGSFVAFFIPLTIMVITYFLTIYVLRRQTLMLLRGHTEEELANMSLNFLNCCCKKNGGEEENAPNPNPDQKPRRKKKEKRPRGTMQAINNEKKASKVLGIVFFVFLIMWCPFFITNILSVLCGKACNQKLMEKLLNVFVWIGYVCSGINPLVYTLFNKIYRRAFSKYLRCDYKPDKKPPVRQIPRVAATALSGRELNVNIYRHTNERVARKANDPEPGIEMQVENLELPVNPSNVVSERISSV
Compound,Ki [1],Ki [2],Ki [3]
Clc1ccc2c(c1)C(N1CCNCC1)=Nc1ccccc1O2,1 nM,–,–
CN(C)CCCN1c2ccccc2CCc2ccccc21,160 nM,–,–
"O=c1n(CCCN2CCN(c3cccc(Cl)c3)CC2)nc2ccccn12 [2-{3-[4-(3-chlorophenyl)piperazin-1-yl]propyl}[1,2,4]triazolo[4,3-a]pyridin-3(2H)-one]",6 nM,–,–
"CN1Cc2c(N)cccc2[C@H](c2ccccc2)C1 [(+/-)-2-Methyl-4-phenyl-1,2,3,4-tetrahydro-isoquinolin-8-ylamine]",–,1000 nM,1000 nM

# Source: BindingDB's records for doi:10.1007/bf02246453 (University of Turku, 1996)
